Measurements as given in patent US11149018B2, “Substituted N-arylethyl-2-aminoquinoline-4-carboxamides and use thereof” (Bayer Aktiengesellschaft, priority 2017, dated 2021).

The chains behind the UniProt entries cited, without tags or fusion partners. Where a name states a change or a piece, a line headed by the entry shows the natural chain unless it says otherwise.
UniProt P43088: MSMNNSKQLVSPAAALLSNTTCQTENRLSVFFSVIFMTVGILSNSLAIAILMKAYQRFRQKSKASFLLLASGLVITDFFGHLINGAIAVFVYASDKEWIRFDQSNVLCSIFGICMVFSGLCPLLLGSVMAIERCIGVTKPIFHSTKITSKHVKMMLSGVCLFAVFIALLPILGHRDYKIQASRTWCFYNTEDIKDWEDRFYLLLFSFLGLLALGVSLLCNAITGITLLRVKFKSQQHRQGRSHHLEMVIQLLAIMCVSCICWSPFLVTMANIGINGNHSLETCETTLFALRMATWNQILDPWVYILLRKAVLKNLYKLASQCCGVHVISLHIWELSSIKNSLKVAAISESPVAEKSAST

Biological target: FP receptor (Homo sapiens (Human), UniProt P43088)
Test: In vitro test of inhibition of human FP receptor activity (PGF2α-induced calcium flux in FP-expressing CHEM1 cells)
Type: cell-based
Method: B-1. In Vitro Test of Inhibition of Human FP Receptor Activity
For the characterization of test substances in respect of FP antagonism, PGF2α-induced calcium flux in FP-expressing CHEM1 cells (Millipore, HTS093C) was used.
10 μl of the prediluted substance solution are added to the Fluo-8-laden cells and incubated at 37° C., 5% CO2 for 10 minutes. The FP receptor is activated by adding 40 μl of 2 nM (final concentration) PGF2α in calcium-free Tyrode, 2 mM CaCl2, 0.002% SmartBlock, and the calcium flux is determined by measuring the fluorescence at ex. 470 nm/[…].
Table 1 below lists the IC50 values from this assay for individual working examples of the invention (some as mean values from multiple independent individual determinations): […]

[1] = PGF2α 2 nM, calcium flux, CHEM1 cells, some mean values of multiple determinations

Molecule | IC50 [1] [nM] | IC50 [nM]
Cc1c(N2CCCC(F)(F)C2)nc2ccc(Br)cc2c1C(=O)NCC(CCC(=O)O)c1ccccc1OC(F)(F)F (racemic) [Example 132, (+/−)-5-({[6-Bromo-2-(3,3-difluoropiperidin-1-yl)-3-methylquinolin-4-yl]carbonyl}amino)-4-[2-(trifluoromethoxy)phenyl]pentanoic acid] | 3.1 | –
Cc1c(N2CCCCCC2)nc2ccc(Br)cc2c1C(=O)NCC(CCC(=O)O)c1c(F)ccc(F)c1Cl (racemic) [Example 159, (+/−)-5-({[2-(Azepan-1-yl)-6-bromo-3-methylquinolin-4-yl]carbonyl}amino)-4-(2-chloro-3,6-difluorophenyl)pentanoic acid] | 3.1 | –
Cc1c(N2CCCCC2)nc2ccc(Br)cc2c1C(=O)NCC(CCC(=O)O)c1c(F)cccc1F (single isomer, unassigned; (-)) [Example 246, (−)-5-({[6-Bromo-3-methyl-2-(piperidin-1-yl)quinolin-4-yl]carbonyl}amino)-4-(2,6-difluorophenyl)pentanoic acid] | 3.1 | –
(−)-5-[({6-Bromo-3-methyl-2-[(^2H10)piperidin-1-yl]quinolin-4-yl}carbonyl)amino]-4-(2-chloro-3,6-difluorophenyl)pentanoic acid [Example 274] | – | 0.73
(−)-5-[({6-Bromo-3-methyl-2-[(^2H10)piperidin-1-yl]quinolin-4-yl}carbonyl)amino]-4-(2-chlorophenyl)pentanoic acid [Example 268] | – | 3.1

Like-named read-outs stand apart in the source and are kept apart here.
